According to PubChem BioAssay AID1117337 (Cheminformatics & Chemogenomics Research Group (CCRG), …, 2015):
The source made the active and inactive calls. No rule for the calls is given here.

Tested on: ADSC/ECFC co-culture, VEGF-stimulated, CD31 tube area
Test: inhibition of endothelial tube formation, dose response, imaging, VEGF stimulation, CD31 staining, tube area, IC50 (AID 1117337)

In the case of C/C1=C2N=C(/C=C3N=C(/C(C)=C4\[N-][C@@](C)([C@@H]5N=C1[C@](C)(CCC(=O)NC[C@@H](C)OP(=O)([O-])O[C@H]1[C@@H](O)[C@@H](n6cnc7cc(C)c(C)cc76)O[C@@H]1CO)[C@H]5CC(N)=O)[C@@](C)(CC(N)=O)[C@@H]4CCC(N)=O)[C@@](C)(CC(N)=O)[C@@H]\3CCC(N)=O)C(C)(C)[C@@H]/2CCC(N)=O.[C-]#N.[Co+3], the IC50 is reported as inactive: > 10 µM.
